For one compound, IC50 results are on record in ChEMBL document CHEMBL1126916, “Cyclic GMP phosphodiesterase inhibitors. 1. The discovery of a novel potent inhibitor, 4-((3,4-(methylenedioxy)benzyl)amino)-6,7,8-trimethoxyquinazoline” (J Med Chem, 1993).

A word on the IC50: it is the point on the concentration scale where inhibition reaches its midpoint.

This assay concerns the target T1, Phosphodiesterase 3A (Sus scrofa, UniProt Q9XSW7).
T1 sequence (Q9XSW7 whole entry): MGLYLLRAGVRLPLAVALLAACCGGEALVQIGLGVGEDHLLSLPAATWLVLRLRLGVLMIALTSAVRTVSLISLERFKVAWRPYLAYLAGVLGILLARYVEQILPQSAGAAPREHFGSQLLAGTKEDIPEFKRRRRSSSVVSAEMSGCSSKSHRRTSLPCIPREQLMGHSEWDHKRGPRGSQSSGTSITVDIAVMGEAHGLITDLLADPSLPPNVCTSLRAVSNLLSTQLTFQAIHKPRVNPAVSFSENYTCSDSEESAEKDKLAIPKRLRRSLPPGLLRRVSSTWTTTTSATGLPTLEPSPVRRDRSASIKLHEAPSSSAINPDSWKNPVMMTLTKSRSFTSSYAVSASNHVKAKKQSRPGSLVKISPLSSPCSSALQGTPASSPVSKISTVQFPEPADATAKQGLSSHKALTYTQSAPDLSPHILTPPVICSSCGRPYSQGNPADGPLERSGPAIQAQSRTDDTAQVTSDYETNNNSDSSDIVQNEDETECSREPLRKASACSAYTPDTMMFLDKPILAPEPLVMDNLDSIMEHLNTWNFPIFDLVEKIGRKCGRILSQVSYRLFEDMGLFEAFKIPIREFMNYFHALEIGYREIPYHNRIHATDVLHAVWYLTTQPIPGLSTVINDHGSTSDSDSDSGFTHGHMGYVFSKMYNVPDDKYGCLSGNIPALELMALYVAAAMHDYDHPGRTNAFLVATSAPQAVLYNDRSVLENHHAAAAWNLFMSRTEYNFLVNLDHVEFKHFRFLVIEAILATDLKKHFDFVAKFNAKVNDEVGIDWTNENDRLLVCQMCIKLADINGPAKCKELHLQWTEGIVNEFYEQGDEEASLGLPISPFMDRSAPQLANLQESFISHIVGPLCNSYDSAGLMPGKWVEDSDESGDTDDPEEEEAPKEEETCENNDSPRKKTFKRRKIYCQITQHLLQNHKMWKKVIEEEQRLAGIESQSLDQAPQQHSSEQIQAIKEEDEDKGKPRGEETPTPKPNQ
Briefly: Inhibition of cGMP-inhibited phosphodiesterase from porcine coronary arteries.

As for `COc1cc2c(NCc3ccc4c(c3)OCO4)ncnc2c(OC)c1OC`, the IC50 is over 100 µM.
